By UniProt entry, the sequences of proteins in these tests, tags left out. Where a name states a change or a piece, a line headed by the entry shows the natural chain unless it says otherwise.
UniProt Q9NRG4: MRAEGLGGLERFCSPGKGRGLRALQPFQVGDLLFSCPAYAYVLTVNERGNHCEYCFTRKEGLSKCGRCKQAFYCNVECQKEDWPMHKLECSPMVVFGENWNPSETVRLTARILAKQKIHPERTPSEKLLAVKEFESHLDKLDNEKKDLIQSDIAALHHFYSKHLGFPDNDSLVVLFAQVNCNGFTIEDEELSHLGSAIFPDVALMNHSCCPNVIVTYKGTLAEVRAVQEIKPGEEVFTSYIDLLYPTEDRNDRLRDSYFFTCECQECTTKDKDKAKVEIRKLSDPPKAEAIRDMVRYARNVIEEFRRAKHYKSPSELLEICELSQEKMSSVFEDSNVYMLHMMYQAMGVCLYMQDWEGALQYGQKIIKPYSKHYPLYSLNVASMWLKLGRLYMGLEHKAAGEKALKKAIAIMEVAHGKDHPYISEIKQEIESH

In publication PMC4917279 (Journal of Medicinal Chemistry, 2016):

Target: SMYD2 (Homo sapiens, UniProt Q9NRG4)
Test: Mechanism-of-inhibition studies (SPA, Cheng-Prusoff)
Type: biochemical
Parameters: The SMYD2 full-length enzyme with an N-terminal 6xHis tag was expressed in Escherichia coli; made in house; host or cells: Escherichia coli
Conditions: SAM titration, Cheng–Prusoff uncompetitive model

Q: With `CCN(C(=O)CO)[C@H]1CN(/C(=N\C#N)Nc2cccc(OC(F)F)c2)N=C1c1ccc(Cl)c(Cl)c1` [(S)-4] as the compound, how does the “αKi(app)” value read?
A: 28 ± 3 nM
